This assay concerns the target human MOGAT-2 (Homo sapiens (Human), UniProt Q3SYC2). Put plainly: MOGAT-2 Cell Assay (Caco-2 cells stably transfected with human MOGAT-2, HDG substrate, LC-MS). Particulars: Caco-2 cells expressing human MOGAT-2; value (Std Dev., n). In kind it is cell-based.

Chains of the proteins cited; added tags and fusions are not shown. Lines headed by an entry give the natural chain unless they say otherwise; changes in a name come on top.
UniProt Q3SYC2: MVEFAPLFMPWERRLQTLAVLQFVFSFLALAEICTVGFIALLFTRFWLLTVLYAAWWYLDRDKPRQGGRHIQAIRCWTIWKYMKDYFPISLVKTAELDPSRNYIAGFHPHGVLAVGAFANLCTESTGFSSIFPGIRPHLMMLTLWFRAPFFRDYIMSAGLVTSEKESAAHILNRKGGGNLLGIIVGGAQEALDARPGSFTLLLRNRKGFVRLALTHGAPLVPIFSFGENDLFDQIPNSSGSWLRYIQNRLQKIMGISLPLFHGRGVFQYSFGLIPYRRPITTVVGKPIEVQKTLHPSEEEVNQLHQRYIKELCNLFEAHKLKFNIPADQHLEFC

For orientation: IC50 means the concentration needed to halve the response being measured. As for `C[C@@H](NS(C)(=O)=O)c1ccc(CN2CCO[C@@H](c3ccccc3)C2)cc1` (single isomer, unassigned; isomer 1) [Example 16], half-maximal inhibition (IC50) was put at 94 nM.

For the origin of these results see US8993568B2, “Morpholinyl derivatives useful as MOGAT-2 inhibitors” (Eli Lilly and Company, priority 2012, dated 2015).
